Target: human recombinant AChE (Homo sapiens, UniProt P22303)
Assay: biochemical

Sequences of proteins named here, by UniProt entry; tags and fusion partners are left off. Residues count along the entry.
UniProt P22303, 32-614: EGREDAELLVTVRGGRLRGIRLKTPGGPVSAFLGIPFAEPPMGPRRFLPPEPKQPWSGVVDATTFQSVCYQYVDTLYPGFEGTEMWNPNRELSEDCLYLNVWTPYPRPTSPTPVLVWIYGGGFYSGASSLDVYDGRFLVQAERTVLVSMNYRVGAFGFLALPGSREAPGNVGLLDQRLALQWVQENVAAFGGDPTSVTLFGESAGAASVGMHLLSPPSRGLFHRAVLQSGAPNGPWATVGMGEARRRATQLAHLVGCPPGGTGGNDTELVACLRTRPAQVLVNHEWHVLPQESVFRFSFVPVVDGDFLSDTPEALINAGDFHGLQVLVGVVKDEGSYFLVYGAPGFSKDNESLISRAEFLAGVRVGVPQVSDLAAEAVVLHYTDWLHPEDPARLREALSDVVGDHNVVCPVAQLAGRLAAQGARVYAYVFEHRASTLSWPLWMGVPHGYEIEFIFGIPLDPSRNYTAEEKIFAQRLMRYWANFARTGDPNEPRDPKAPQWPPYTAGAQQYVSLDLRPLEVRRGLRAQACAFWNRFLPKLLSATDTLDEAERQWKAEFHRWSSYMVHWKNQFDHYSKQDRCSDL

Row | SMILES | IC50
1 | CCCCNC1c2ccccc2-c2ccccc21.Cl [Compound 3m, N-Butyl-9H-fluoren-9-amine hydrochloride] | 49.9 ± 3.05 µM
2 | Cl.c1ccc2c(c1)-c1ccccc1C2NC1CCCCC1 [Compound 3c, N-Cyclohexyl-9H-fluoren-9-amine hydrochloride] | 14 ± 0.35 µM
